In US11007356B2, “Ingestible device for delivery of therapeutic agent to the gastrointestinal tract” (Progenity, Inc., priority 2018, dated 2021):
Where two headings read alike, the source gives them in different places.

Experiments:
[1] = Dosing regimen model: required bioavailability for ingestible device (Tables 16, 17); conditions: approved dose x bioavailability of the approved route (Table 16)
[2] = in vivo, cited from earlier work
[3] = Insulin PK after SC or intra-jejunal (IJ) jet delivery in swine (Example 3); type: in vivo, Yorkshire female swine; conditions: individual animals

Substance	Eff Dose [1] [mg]	Bio Avail (Approved Dosing Info) [2] [%]	Tmax of blood insulin ([3]; IJ administration via jet delivery device, ~40 U) [h]	Tmax of blood insulin ([3]; SC administration) [h]	Bio Avail (Approved Dosing Info) ([2]; sc) [%]
interferon beta-1a	0.01	40			
Novolin® R: regular human insulin (NOVOLIN® R)			1.25	1.25	
abatacept	98.8				79
